# Data as given in patent US7799799B2, “Indolizine derivatives, method for preparing same, and therapeutic compositions comprising same” (Sanofi-Aventis, priority 2005, dated 2010).
# Assay: Solubility test at pH=4 from phosphate buffer pH 6 0.1M, by HPLC
# Type: physicochemical
# Conditions: second figure of the S/pH cell; pH noted for the solubility sample
# Protocol: The results for solubility, S, and pH are shown in the table below and are expressed in mg/ml.
# A phosphate buffer, pH6, 0.1M, was prepared by adding 6.15 ml of 0.1M Na2HPO4 to 43.85 ml of 0.1M NaH2PO4. The solution was made up to 100 ml with filtered water using a Millipore system (trade mark).
# Reference (Test Product in a Concentration in which the Latter is Soluble and which Acts as an Internal Reference)
# About 0.2 mg (in a boat) was weighed out exactly and diluted in 1 ml of H2O/CH3CN: (50:50), i.e. 0.2 mg/ml, then the sample was subjected to ultrasound for 5 minutes.
# About 4 mg (in a boat) was weighed out exactly and diluted in 400 μl (i.e. 10 mg/ml) of pH6 phosphate buffer (0.1M), then the sample was subjected to ultrasound for 5 minutes.
# The pH was noted and if the pH was below 4, 1 μl of NaOH 1N was added (from 1 μl in 1 μl) until the pH was more than 4, then the pH was noted again. The solution (0.45 μm) was filtered then if necessary diluted with the phosphate buffer pH6. (If the product re-precipitated after diluting, the diluted sample was ignored, the mother solution was used and the solubility was determined at a wavelength other than λmax, to avoid saturating the signal.
# The solubility of the compound was then determined by HPLC under the following conditions:
# Instrument: Agilent 1100 chromatograph
# Column temperature: 30° C. […]
smiles,measurement,value
"CCCCc1cc2ccccn2c1C(=O)c1ccc(CCCN(C)C)cc1.Cl [compound 38, (2-butylindolizin-3-yl){4-[3-(dimethylamino)propyl]phenyl}methanone hydrochloride]",pH (of the solubility sample),6.7
